# In US20110046173A1 (priority 2009, published 2011):
# Test system: opioid related adverse events
# Details: morphine equivalent 12 mg, q6h 48 hr
smiles,measurement,value
"CN1CC[C@]23c4c5ccc(O)c4O[C@H]2[C@@H](O)C=C[C@H]3[C@H]1C5 [Morphine, morphine]","Constipation - moderate/severe, Adverse Events (%)",0%
same,"Constipation mild/mod/severe, Adverse Events (%)",10%
same,"Dizziness - moderate/severe, Adverse Events (%)",7%
same,Dropouts (%),7%
"COc1ccc2c3c1O[C@H]1C(=O)CC[C@@]4(O)[C@@H](C2)N(C)CC[C@]314 [Oxycodone, oxycodone]","Constipation - moderate/severe, Adverse Events (%)",0%
same,"Constipation mild/mod/severe, Adverse Events (%)",6%
